# Source: patent US6187807A, “Methods of use and compositions of (S) (-)-amisulpride” (Sanofi-Synthelabo, priority 1999, dated 2001)
# System: catalepsy
# Type: in vivo
# Protocol: The propensity of the drugs to induce extrapyramidal side effects was assessed by measuring their potential to induce catalepsy and to antagonize apomorphine-induced stereotyped behaviour and the sedative potential of the drugs was evaluated by their capacity to decrease spontaneous locomotor activity in the rat.
# The occurrence of catalepsy in rats was assessed using the four-cork test. This measurement was performed by placing each paw of the rat on a 2.5 cm high cork (diameter 1.2 cm). Distance between contralateral corks was 8 cm and between ipsilateral corks 13 cm. Catalepsy time was measured for a maximum of 2 min at 2 hours, and 4 hours after ip drug treatment.
smiles,measurement,setting,value
"CCN1CCC[C@H]1CNC(=O)c1cc(S(=O)(=O)CC)c(N)cc1OC [(S)(-)-amisulpride, (S)-(-)-4-amino-N-[(1-ethylpyrrolidin-2-yl)methyl]-5-(ethylsulfonyl)-2-methoxybenzamide]",Potency of both compounds in models predictive of extrapyramidal and sedative side effects,"(S)(-)-amisulpride compared with (R,S)-amisulpride, in words",quite similar
same,"Induction of catalepsy, in words","at doses up to 100 mg/kg, ip",neither compound induced catalepsy
